Laboratory results taken from patent publication US20140171455A1, “Reduction of Microglia-Mediated Neurotoxicity by Kv1.3 Inhibition” (The Regents of the University of California, priority 2011, published 2014).
pIC50: −log10 of the molar value.

Protein sequences, listed by entry. Tags and fused reporters are not part of them.
UniProt P16390, whole entry: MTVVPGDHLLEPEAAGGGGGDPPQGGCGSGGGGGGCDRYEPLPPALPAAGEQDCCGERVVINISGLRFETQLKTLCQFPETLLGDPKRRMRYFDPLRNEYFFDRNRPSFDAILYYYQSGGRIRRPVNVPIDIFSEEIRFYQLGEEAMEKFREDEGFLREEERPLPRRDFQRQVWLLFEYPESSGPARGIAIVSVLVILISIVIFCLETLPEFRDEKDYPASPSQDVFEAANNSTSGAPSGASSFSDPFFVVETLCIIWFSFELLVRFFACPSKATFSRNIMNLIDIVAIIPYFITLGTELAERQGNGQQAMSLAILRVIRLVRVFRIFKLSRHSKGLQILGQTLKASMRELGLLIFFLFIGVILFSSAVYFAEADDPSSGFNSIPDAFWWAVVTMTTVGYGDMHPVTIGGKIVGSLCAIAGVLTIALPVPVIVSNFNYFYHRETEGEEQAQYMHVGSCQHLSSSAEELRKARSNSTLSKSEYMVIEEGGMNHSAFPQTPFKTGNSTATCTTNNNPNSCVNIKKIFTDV

Biological target: T1, Kv1.3 (Mus musculus, UniProt P16390)
T1 construct: pharmacological characterization of currents from cultured microglia stimulated for 48 hours with AbO or LPS; endogenous in cells; host or cells: primary microglia cultured from newborn C57Bl/6 mice, stimulated 48 h with AbO or LPS
Assay: Whole-cell voltage-clamp of Kv currents in cultured stimulated microglia
Format: cell-based
Conditions: cultured microglia stimulated for 48 hours with AbO; read-out: IC50 on microglial Kv current
Procedure: In order to determine if Kv1.3 is indeed functionally expressed in mouse microglia Applicants performed electrophysiological experiments on cultured mouse microglia in the whole-cell mode of the patch-clamp technique. Kv currents were elicited with 500 millisecond pulses from a holding-potential of −100 mV to +40 mV applied every 45 sec.
Microglia cultured from newborn C57B1/6 mice were treated with lipopolysaccharides (LPS) or AbO for 24 or 48 hrs. […] Kv currents were elicited by 500 ms voltage steps from −80 to 40 mV (representative traces on right).

**Q.** With `CC[C@H](C)[C@@H]1NC(=O)[C@@H](NC(=O)[C@H](CO)NC(=O)[C@H](CCCNC(=N)N)NC(=O)COCCOCCNC(=O)[C@@H](N)Cc2ccc(OP(=O)(O)O)cc2)CSSC[C@@H](C(N)=O)NC(=O)[C@H]([C@@H](C)O)NC(=O)CNC(=O)[C@@H]2CSSC[C@@H]3NC(=O)[C@H](CCC(N)=O)NC(=O)[C@H](Cc4ccccc4)NC(=O)[C@H](C)NC(=O)[C@H]([C@@H](C)O)NC(=O)[C@H](CSSC[C@H](NC(=O)[C@H](Cc4ccccc4)NC(=O)[C@H](CO)NC(=O)[C@H](CC(C)C)NC(=O)[C@H](CCCNC(=N)N)NC(=O)[C@H](Cc4ccc(O)cc4)NC(=O)[C@H](CCCCN)NC(=O)[C@H](CCSC)NC(=O)[C@H](CO)NC(=O)[C@H](Cc4c[nH]cn4)NC(=O)[C@H](CCCCN)NC3=O)C(=O)N[C@@H](CCCNC(=N)N)C(=O)N[C@@H](CCCCN)C(=O)N[C@@H]([C@@H](C)O)C(=O)N2)NC(=O)[C@H](CCCNC(=N)N)NC(=O)[C@H](CO)NC(=O)[C@H](CCCCN)NC(=O)[C@@H]2CCCN2C(=O)[C@H]([C@@H](C)CC)NC(=O)[C@H]([C@@H](C)O)NC(=O)[C@H](CC(=O)O)NC1=O` [ShK-186] as the molecule, how does the pIC50 read?
**A.** 10.16
